Measurements: publication PMC2849849 (Neuropharmacology, 2010)
Where “and” joins values, the source holds several entries; their conditions need not be identical. Equal values may be shown once.

By UniProt entry, the sequences of proteins in these tests, tags left out. Residues count along the entry.
UniProt O70174, 31-629: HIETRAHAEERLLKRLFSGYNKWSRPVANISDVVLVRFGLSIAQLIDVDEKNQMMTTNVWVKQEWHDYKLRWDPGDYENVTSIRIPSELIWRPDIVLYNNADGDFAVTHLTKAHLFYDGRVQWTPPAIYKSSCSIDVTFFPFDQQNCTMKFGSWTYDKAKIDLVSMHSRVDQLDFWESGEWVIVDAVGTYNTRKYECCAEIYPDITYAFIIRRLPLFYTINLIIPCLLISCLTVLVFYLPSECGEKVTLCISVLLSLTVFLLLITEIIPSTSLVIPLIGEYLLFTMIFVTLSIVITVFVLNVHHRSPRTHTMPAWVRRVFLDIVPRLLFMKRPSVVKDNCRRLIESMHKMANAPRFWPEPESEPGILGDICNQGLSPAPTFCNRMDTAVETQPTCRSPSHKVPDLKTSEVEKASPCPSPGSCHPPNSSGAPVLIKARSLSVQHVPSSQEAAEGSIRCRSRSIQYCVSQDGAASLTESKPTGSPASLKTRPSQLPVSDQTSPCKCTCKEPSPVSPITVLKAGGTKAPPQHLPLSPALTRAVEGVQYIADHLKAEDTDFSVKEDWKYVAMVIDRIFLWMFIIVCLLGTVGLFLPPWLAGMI
UniProt Q9ERK7, 26-501: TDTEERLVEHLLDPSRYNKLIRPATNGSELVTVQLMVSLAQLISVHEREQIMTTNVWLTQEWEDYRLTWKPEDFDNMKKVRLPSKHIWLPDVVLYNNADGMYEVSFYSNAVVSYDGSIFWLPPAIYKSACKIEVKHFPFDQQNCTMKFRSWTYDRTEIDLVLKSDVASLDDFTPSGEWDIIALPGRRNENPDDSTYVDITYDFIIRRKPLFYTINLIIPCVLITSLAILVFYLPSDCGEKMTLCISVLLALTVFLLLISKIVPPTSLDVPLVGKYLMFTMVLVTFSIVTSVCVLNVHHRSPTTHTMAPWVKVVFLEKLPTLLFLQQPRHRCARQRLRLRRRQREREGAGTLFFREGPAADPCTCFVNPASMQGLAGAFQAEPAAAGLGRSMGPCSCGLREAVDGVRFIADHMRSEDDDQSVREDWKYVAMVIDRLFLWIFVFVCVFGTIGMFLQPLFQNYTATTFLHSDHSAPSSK
UniProt P49582, 23-502: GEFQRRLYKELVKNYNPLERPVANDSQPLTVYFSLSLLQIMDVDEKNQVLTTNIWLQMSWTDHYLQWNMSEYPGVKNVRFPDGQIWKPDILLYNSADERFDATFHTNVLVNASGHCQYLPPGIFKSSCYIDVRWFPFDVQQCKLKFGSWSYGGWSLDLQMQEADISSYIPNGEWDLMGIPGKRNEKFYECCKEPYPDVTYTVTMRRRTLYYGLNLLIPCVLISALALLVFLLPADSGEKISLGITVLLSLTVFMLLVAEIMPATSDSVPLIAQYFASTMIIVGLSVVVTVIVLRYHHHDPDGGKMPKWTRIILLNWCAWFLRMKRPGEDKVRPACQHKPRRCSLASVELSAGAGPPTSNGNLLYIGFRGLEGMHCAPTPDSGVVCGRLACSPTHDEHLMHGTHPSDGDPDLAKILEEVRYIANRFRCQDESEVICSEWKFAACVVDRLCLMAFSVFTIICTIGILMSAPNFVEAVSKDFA

Columns and labels:
α4β2*-nAChR = α4β2*-nAChR (Mus musculus, UniProt O70174+Q9ERK7); experiment: α-CtxMII-resistant [3H]-dopamine release from striatal synaptosomes; format: biochemical
α7-nAChR = α7-nAChR (Mus musculus, UniProt P49582); settings: read-out: IC50 inhibition of binding to α7-nAChR; membranes from HP

## c1cncc(C2CC3CCN2CC3)c1 (racemic) [Compound 1, (±)-2-(-3-pyridinyl)-1-azabicyclo[2.2.2]octane]
α4β2*-nAChR
  Efficacy at α4β2* compared to nicotine: 30%
  Efficacy α4β2* (first number, [3H]DA release): 28% and 28 ± 2 % 31 ± 4%
α7-nAChR
  IC50: 30.8 ± 8.39 nM
